{"sequences": {"note": "Protein sequences, listed by entry. Tags and fused reporters are not part of them.", "UniProt P20309, whole entry, looked up": "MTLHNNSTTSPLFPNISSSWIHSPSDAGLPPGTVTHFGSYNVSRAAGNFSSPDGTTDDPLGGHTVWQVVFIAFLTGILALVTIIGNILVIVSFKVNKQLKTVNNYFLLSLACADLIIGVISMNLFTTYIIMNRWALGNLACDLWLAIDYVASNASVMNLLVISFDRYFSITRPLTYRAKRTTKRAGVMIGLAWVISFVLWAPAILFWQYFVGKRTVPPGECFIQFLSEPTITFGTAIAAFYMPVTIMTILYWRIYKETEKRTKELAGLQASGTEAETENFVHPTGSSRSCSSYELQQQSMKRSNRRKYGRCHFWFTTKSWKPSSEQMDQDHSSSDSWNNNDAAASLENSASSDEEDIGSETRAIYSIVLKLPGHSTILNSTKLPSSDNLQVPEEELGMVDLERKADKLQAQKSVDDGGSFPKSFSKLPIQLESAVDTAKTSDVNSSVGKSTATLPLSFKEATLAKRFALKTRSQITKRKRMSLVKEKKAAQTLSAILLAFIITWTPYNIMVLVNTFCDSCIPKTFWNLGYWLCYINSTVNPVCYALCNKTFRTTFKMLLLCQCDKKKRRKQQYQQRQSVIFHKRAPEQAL"}, "source": "patent US10196386B2", "about": "“Compounds having muscarinic receptor antagonist and beta2 adrenergic receptor agonist activity” (priority 2016, dated 2019)"}
{"target": "Human M3 receptor (Homo sapiens, UniProt P20309)", "assay": "M3 receptor radioligand binding assay", "settings": "read-out: M3 Range; binding affinity class, human M3 receptor membranes, [N-methyl-3H] Scopolamine Methyl Chloride", "units": {"IC50": "nM"}}
{"smiles": "CN1CCC(OC(=O)[C@](O)(c2ccccc2)c2cccc(-c3ccc(CNC(=O)c4ccc(CNC[C@H](O)c5ccc(O)c6[nH]c(=O)ccc56)cc4)s3)c2)CC1", "note": "[Compound 2, 1-Methylpiperidin-4-yl (S)-2-hydroxy-2-(3-(5-((4-((((R)-2-hydroxy-2-(8-hydroxy-2-oxo-1,2-dihydroquinolin-5-yl)ethyl)amino)methyl)benzamido)-methyl)thiophen-2-yl)phenyl)-2-phenylacetate]", "IC50": "0.3 to 3"}
{"smiles": "O=C(NCc1ccc(-c2cccc([C@](O)(C(=O)OC[C@H]3CCCN(Cc4ccccc4)C3)c3ccccc3)c2)s1)c1ccc(CNC[C@H](O)c2ccc(O)c3[nH]c(=O)ccc23)cc1", "note": "[Compound 2C, ((S)-1-Benzylpiperidin-3-yl)methyl (S)-2-hydroxy-2-(3-(5-((4-((((R)-2-hydroxy-2-(8-hydroxy-2-oxo-1,2-dihydroquinolin-5-yl)ethyl)amino)-methyl)benzamido)methyl)thiophen-2-yl)phenyl)-2-phenylacetate]", "IC50": "> 3"}
{"smiles": "O=C(NCc1ccc(-c2cccc([C@](O)(C(=O)OC3CCN(Cc4ccccc4)CC3)c3ccccc3)c2)s1)c1ccc(CNC[C@H](O)c2ccc(O)c3[nH]c(=O)ccc23)cc1", "note": "[Compound 2F, 1-Benzylpiperidin-4-yl (S)-2-hydroxy-2-(3-(5-((4-((((R)-2-hydroxy-2-(8-hydroxy-2-oxo-1,2-dihydroquinolin-5-yl)ethyl)amino)methyl)-benzamido)methyl)thiophen-2-yl)phenyl)-2-phenylacetate]", "IC50": "0.3 to 3"}
